The chains behind the UniProt entries cited, without tags or fusion partners.
UniProt P29275, whole entry: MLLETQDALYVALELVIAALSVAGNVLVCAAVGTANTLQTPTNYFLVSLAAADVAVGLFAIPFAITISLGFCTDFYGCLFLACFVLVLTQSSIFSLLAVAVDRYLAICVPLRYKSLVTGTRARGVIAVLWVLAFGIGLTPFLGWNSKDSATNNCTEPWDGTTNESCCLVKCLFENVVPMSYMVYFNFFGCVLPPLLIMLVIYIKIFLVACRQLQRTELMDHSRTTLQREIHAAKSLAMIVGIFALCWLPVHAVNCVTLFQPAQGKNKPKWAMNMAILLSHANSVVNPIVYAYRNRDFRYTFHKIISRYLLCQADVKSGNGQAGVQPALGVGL

According to US7160890B2, “Compounds specific to adenosine A3 receptor and uses thereof” (OSI Pharmaceuticals, Inc., priority 1999, dated 2007):

Biological target: human A2b receptor subtype (Homo sapiens, UniProt P29275)
Assay: Adenosine 2b receptor subtype competition radioligand binding, [3H]DPCPX, HEK293 membranes
Settings: Table 13, concentration not given

Cc1[nH]c2nc(-c3ccccc3)nc(N[C@H]3CC[C@H](O)CC3)c2c1C
Binding A2b, value given in %: 30%
